Reference: patent US6153429A (priority 1997, dated 2000)

What was measured:
[1] = test system: T1 cells (C3H/10T1/2 fibroblasts transfected with pdBPV-1 (142-6)); settings: for Ratio of Treated: Untreated Foci: mouse, c3h/10t1/2 t1 cells, 504 h
[2] = test system: S1 clone (C3H/10T1/2 fibroblasts transfected with pdBPV-1 (142-6)); type: cell-based, mouse; settings: 0.5 ng/ml mezerein, 21 days; average of 21 in the absence of mezerein

CC/C(=C(/CC)c1ccc(O)cc1)c1ccc(O)cc1 [Diethylstilbestroel, diethylstilbestroel]
#Foci In Treated Cells [1]: 83 + 4

Cn1c(=O)c2c(ncn2C)n(C)c1=O [caffeine]
#Foci In Treated Cells [1]: 64 + 3

[Cd] [Cadmium]
#Foci In Treated Cells [1]: 100 + 7
Ratio of Treated: Untreated Foci [1]: 1.4

O=[As](O)(O)O [arsenate]
#Foci In Treated Cells [1]: 91 + 5
Ratio of Treated: Untreated Foci [1]: 1

O[As](O)O [Arsenite]
#Foci In Treated Cells [1]: 75 + 2
Ratio of Treated: Untreated Foci [1]: 1.2

c1ccc2c(c1)cc1ccc3cccc4ccc2c1c34 [Benzo[a]pyrene, benzo[a]pyrene]
#Foci In Treated Cells [1]: 90 + 6

C=C(C)C12OC3(c4ccccc4)OC1C1C4OC4(CO)C(O)C4(O)C(=O)C(C)=CC4C1(O3)C(C)C2OC(=O)/C=C/C=C/c1ccccc1 (stereo not shown) [Mezerein, mezerein]
average number of foci in the presence of mezerein, S1 clone [2]: 60 foci per 60 mm^2 plate
#Foci In Treated Cells [1]: 143 + 18
average number of foci in the presence of mezerein, subclone T1 [1]: 70 foci

C1CCOC1 [tetrahydrofuran]
#Foci In Treated Cells [1]: 70 + 7
